BindingDB's records for doi:10.1021/acsmedchemlett.9b00621 (Gilead Sciences, 2020)

Test: Inhibition of SYK-mediated alpha CD3/alpha CD28-stimulated human T lymphocytes proliferation measured after 90 hrs by EdU incorporation assay

EC50: 1300 nM
SMILES: Nc1cncc(-c2cn3ccnc3c(Nc3ccc(N4CCN(C5COC5)CC4)cc3)n2)n1 [US9504684, Ex.-2]
